# System: DNA gyrase (Escherichia coli)
# Assay: Concentration facilitating 50% of the maximum of the cleavable complex
compound,measurement,value
O=c1c(O)c(-c2cc(O)cc(O)c2)oc2cc(O)cc(O)c12,CC50,436 µg/mL
